From PubChem BioAssay AID1347055 (National Center for Advancing Translational Sciences (NCATS), 2019)
The entries are a selection whose mix differs from that of the whole data set. Inconclusive results are not listed. The source made the active and inactive calls. The call rests on the fitted dose curve; in most records, active means well fitted inhibition curve with a large enough effect; inconclusive means small, poorly fitted or top-dose-only effect, or effect the other way; inactive means flat fitted curve, though single readings scatter.

Sequences of proteins named here, by UniProt entry; tags and fusion partners are left off. A change or cut given only in a name is not applied to a line headed by its entry.
UniProt P07954: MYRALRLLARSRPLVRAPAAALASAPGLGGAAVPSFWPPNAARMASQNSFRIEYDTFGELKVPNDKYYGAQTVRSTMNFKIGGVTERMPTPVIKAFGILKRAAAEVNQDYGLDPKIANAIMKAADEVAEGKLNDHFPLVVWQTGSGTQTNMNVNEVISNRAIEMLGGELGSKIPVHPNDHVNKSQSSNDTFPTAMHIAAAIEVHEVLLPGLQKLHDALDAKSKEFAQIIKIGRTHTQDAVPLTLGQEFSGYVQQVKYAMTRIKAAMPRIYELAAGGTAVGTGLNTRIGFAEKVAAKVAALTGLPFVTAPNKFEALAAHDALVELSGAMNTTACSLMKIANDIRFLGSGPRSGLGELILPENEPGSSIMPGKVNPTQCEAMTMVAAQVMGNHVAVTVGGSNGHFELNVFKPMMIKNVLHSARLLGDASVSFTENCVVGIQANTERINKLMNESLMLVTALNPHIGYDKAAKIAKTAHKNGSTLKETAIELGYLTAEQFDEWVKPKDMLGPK

target: Fumarate hydratase, mitochondrial (Homo sapiens) (UniProt P07954); assay: Identification of activators of human fumarate hydratase by quantitative high-throughput screening; settings: FH coupled MDH/diaphorase resazurin fluorescence, 15 min; activity change, negative = inhibition: at the top concentration; further: the screen sought activators but most active calls are inhibition curves; nearly all actives have a fitted effect of over 45% in size
Excerpt: Fumarate hydratase (FH) is a metabolic enzyme that is part of the Krebs-cycle, and reversibly catalyzes the hydration of fumarate to malate. Mutations of the FH gene have been associated with fumarate hydratase deficiency (FHD), hereditary leiomyomatosis, renal cell cancer (HLRCC), and other diseases. Currently there are no high-quality small molecule probes for studying human fumarate hydratase. To address this, we developed a quantitative high throughput screening (qHTS) FH assay and screened a total of 57,037 compounds in dose-response. While no inhibitors of FH were confirmed, a series of phenyl-pyrrolo-pyrimidine-diones (12 compounds) were identified as activators of human fumarate hydratase. […] The binding of two compounds from the series to human fumarate hydratase was confirmed by microscale thermophoresis. The low hit rate in this screening campaign confirmed that FH is a "tough target" to modulate, and the small molecule activators of human fumarate hydratase reported here may serve as a starting point for further optimization and development into cellular probes of human FH and potential drug candidates.
For primary high-throughput screen, 3 ul of FH solution (containing 13.33nM human fumarate hydratase, 13.33IU/ml malic dehydrogenase, 0.2mM NAD, 0.067mg/ml diaphorase and 0.067mM resazurin in the assay buffer (50 mM Tris pH 8.0, 5 mM MgCl2, 0.01% Brij 3) was dispensed into each well in a black solid bottom 1536-well assay plate (Greiner Bio-One) using a BioRAPTR FRD dispenser (Beckman Coulter, Brea, CA). A 1536-well pintool dispenser outfitted with 20 nl pins (Wako Automation, San Diego, CA) was used to transfer 20 nL of DMSO-solubilized compound (Cherrypick plates) to each 1536-well assay plate. Each compound was screened at five concentrations: 15 nM, 151 nM, 1.5 uM, 15.4 uM, 76.9 uM. Following compound transfer, plates were incubated in room temperature for 10 minutes. 1 uL of substrate solution containing fumaric acid (160 uM) was dispensed via BioRAPTR FRD to initiate the reaction. Plates were immediately transferred to a ViewLux microplate imager (PerkinElmer, Waltham, MA), and any resulting resorufin fluorescence was measured (exitation/emission, 525/598 nm) at 0 and 15 minutes. The exposure time is 1 second. Fluorescence from each well was normalized using enzyme-free and DMSO-treated control wells on each plate, and changes in fluorescence (delta RFU) were calculated using the difference in fluorescent signal for each well at 15 minutes versus 0 minutes.
On the % scale 0 is the no-effect control and ±100 the full control effect; potency means the concentration at half of the fitted maximal effect.

Row | Compound | activity change, negative = inhibition | Potency
1 | CN(C(=O)Cc1ccc(Cl)c(Cl)c1)[C@@H]1CC[C@]2(CCCO2)C[C@H]1N1CCCC1 | inactive: -7.28% | 
2 | CCn1c(=O)n([C@@H]2CCN(CC3CCCCCCC3)C[C@@H]2CO)c2ccccc21 | inactive: -1.33% | 
3 | CCn1c(=O)n([C@@H]2CCN(CC3CCCCCCC3)C[C@H]2CO)c2ccccc21 | inactive: -10.4% [at 79.9 µM] | 
4 | NC(=O)Nc1ccc([As](=O)(O)O)cc1 | inactive: -2.31% | 
5 | CN(C(=O)Cc1ccccc1)[C@@H]1CC[C@]2(CCCO2)C[C@H]1N1CCCC1 | inactive: -9.5% | 
6 | CN(C(=O)Cc1ccc(Cl)c(Cl)c1)[C@H]1CC[C@@]2(CCCO2)C[C@@H]1N1CCCC1 | inactive: -6.25% | 
7 | CN(C)C1(c2ccccc2)CCC2(CC1)OCCc1c2[nH]c2ccc(F)cc12 (centres undefined) | inactive: 1.75% [at 79.9 µM] | 
8 | CN(C(=O)Cc1ccccc1)[C@H]1CC[C@@]2(CCCO2)C[C@@H]1N1CCCC1 | inactive: -2.32% | 
9 | Cc1cc([N+](=O)[O-])cc([N+](=O)[O-])c1O | inactive: 1.52% [at 79.9 µM] | 
10 | CN(C(=O)Cc1ccc(Cl)c(Cl)c1)[C@@H]1CCCC[C@@H]1N1CCCC1 |  | active: 25.1 µM
11 | CN(C(=O)Cc1ccc(Cl)c(Cl)c1)[C@H]1CCCC[C@H]1N1CCCC1 | inactive: -5.68% [at 79.9 µM] | 
12 | CCNC(C)Cc1ccc2c(c1)OCO2 (centres undefined) | inactive: 0.277% [at 79.9 µM] | 
13 | CN(C(=O)Cc1ccc(Cl)c(Cl)c1)[C@H]1CCCC[C@@H]1N1CCCC1 |  | inactive
14 | O=C(O[C@H]1CN2CCC1CC2)C1NCc2ccccc2[C@@H]1c1ccccc1 (some centres undefined) | inactive: 1.5% [at 79.9 µM] | 
